## Measured affinities in a library of Ab-95 light chain variants

The measurements come from Engelhart et al. 2022 (doi:10.1038/s41597-022-01779-4) through the FLAb antibody collection.

Target: peptide PDVDLGDISGINAS, taken from heptad repeat 2 (HR2) of SARS-CoV-2 spike.

The variants keep the heavy chain, the linker and the frameworks of Ab-95 (scFv order VH, a 15-residue (Gly4Ser)3 linker, VL).
VH: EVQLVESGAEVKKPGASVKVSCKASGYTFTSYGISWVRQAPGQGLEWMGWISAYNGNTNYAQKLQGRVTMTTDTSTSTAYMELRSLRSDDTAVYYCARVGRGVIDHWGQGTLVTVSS
VL: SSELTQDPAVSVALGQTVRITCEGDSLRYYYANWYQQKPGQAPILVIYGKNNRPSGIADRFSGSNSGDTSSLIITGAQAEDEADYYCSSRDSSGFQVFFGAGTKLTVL

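Phage display of a naive human antibody library on the peptide gave the parent. Variants in AAYL52 differ from the parent at up to three CDR positions; double and triple changes were sampled at random. The scFvs were displayed on barcoded MATa yeast, the peptide on MATalpha yeast. Mating (16 h, 30 °C) was followed by selection of diploids and sequencing of their barcodes. Each replicate has its own calibration line, from reference interactions of the BCL2 family. Each pool was mated in three replicate cultures.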

Positions count from residue 1 of the parent VL; S26W puts W in place of S. Affinities are written as log10 Kd with Kd in nM; a lower number is a better binder. Averages over replicates are reported, and they cover detected replicates only. Where no diploid with the target was found in any replicate, the entry reads "no signal": below detection, most likely a poor binder, though not proof of it. Three control strains display no target. For library AAYL52, 28% of the pairings with them gave a signal, with a median of 3.91 and one signal in twenty below 2.90, so weak values seen in few replicates may be background. The control count says in how many pairings with the empty strains this scFv gave a signal. For reference, the parent read 2.31 as the reference entry and 2.25 as a member of this library.

changes | mean, log10 nM | seen in | empty controls
S26W N52S G94R | 4.02 | 2 of 3 | 3 of 9
E23I Y29V F95P | 3.81 | 3 of 3 | 3 of 9
K50P P54L | 3.39 | 3 of 3 | 3 of 9
S55F S89E F98Y | 2.90 | 3 of 3 | 1 of 9
P54S S88C F98R | 3.25 | 2 of 3 | 1 of 9
Y29W N33R S89Q | 2.70 | 3 of 3 | 2 of 9
D25T Y31Q N52M | 0.84 | 3 of 3 | 5 of 9
E23P P54T F95S | 4.14 | 3 of 3 | 4 of 9
Y30E N33I G49I | no signal | 0 of 3 | 3 of 9
R28F D91R F98H | 3.79 | 2 of 3 | 4 of 9
D25P S26G V97S | 3.25 | 3 of 3 | 5 of 9
N51C S92I G94S | 4.08 | 3 of 3 | 4 of 9
L27N S55G R90N | no signal | 0 of 3 | 1 of 9
K50F N51G D91W | 3.92 | 2 of 3 | 1 of 9
R28Q R53E | 3.76 | 3 of 3 | 3 of 9
N33D S55D Q96D | 3.65 | 1 of 3 | 2 of 9
L27A N33V F98Q | 4.86 | 1 of 3 | 4 of 9
L27Q R28E R53G | 3.77 | 1 of 3 | 2 of 9
K50L N52Q F98T | 3.42 | 2 of 3 | 5 of 9
K50H S92W S93N | 3.24 | 2 of 3 | 0 of 9
S88P Q96V V97P | 3.87 | 1 of 3 | 3 of 9
P54R D91M V97M | no signal | 0 of 3 | 1 of 9
Y30V N51C S93P | 4.42 | 3 of 3 | 5 of 9
Y31E G49L N51I | no signal | 0 of 3 | 0 of 9
Y30G S89D S93F | 2.69 | 3 of 3 | 1 of 9
E23Y Y31W S55V | 2.99 | 3 of 3 | 5 of 9
D25K R28E N52F | 2.56 | 3 of 3 | 1 of 9
Y31D S89E D91Y | 0.96 | 3 of 3 | 4 of 9
L27P S55N V97M | no signal | 0 of 3 | 2 of 9
A32Y G49T S88P | no signal | 0 of 3 | 4 of 9
P54C S55C S92T | 3.58 | 3 of 3 | 0 of 9
Y30Q S89N F95H | 2.63 | 1 of 3 | 0 of 9
E23A D25S Q96L | 2.22 | 3 of 3 | 7 of 9
N33R P54M R90C | no signal | 0 of 3 | 1 of 9
Y31G G94L | 2.97 | 2 of 3 | 0 of 9
N33F R53Y Q96K | 5.38 | 1 of 3 | 4 of 9
P54G Q96I F98N | 3.58 | 3 of 3 | 5 of 9
E23T R53C D91G | 3.42 | 3 of 3 | 4 of 9
Y29A S55Q G94N | 2.00 | 3 of 3 | 5 of 9
G24F G49C R90A | no signal | 0 of 3 | 2 of 9
A32G P54V | 3.46 | 2 of 3 | 3 of 9
E23N S93C G94T | 1.99 | 3 of 3 | 2 of 9
Y29M R90W F95I | 2.83 | 3 of 3 | 4 of 9
G24I S26H Y31F | 4.05 | 3 of 3 | 5 of 9
K50W S89Y Q96W | 2.87 | 3 of 3 | 5 of 9
Y30T K50W F95C | 2.87 | 3 of 3 | 3 of 9
N33D S92D G94L | 3.98 | 1 of 3 | 3 of 9
S89V D91T Q96S | 2.91 | 3 of 3 | 6 of 9
K50E F98G | 2.18 | 3 of 3 | 6 of 9
Y31H S55D S88D | 2.53 | 3 of 3 | 4 of 9
S55W F95V Q96G | 3.36 | 3 of 3 | 4 of 9
G24M K50N R53Q | 3.47 | 3 of 3 | 3 of 9
G24N P54W S88Y | 4.71 | 3 of 3 | 2 of 9
D25A A32W N33I | 3.91 | 1 of 3 | 1 of 9
L27Q R53W F98A | 4.21 | 2 of 3 | 5 of 9
P54I S55I F95I | 4.53 | 3 of 3 | 3 of 9
N52W S89A | 2.24 | 3 of 3 | 1 of 9
S26A S55E G94W | 1.82 | 3 of 3 | 3 of 9
A32T N52S S55H | 2.61 | 3 of 3 | 0 of 9
Y30G S88W G94S | no signal | 0 of 3 | 0 of 9
S26K G49S N51Q | 4.43 | 1 of 3 | 1 of 9
N52H R53F S88I | 3.46 | 1 of 3 | 0 of 9
Y29L S92R V97Y | 2.77 | 3 of 3 | 1 of 9
N33T R90S D91H | 3.48 | 1 of 3 | 4 of 9
D25L A32H S55C | no signal | 0 of 3 | 0 of 9
D25H Y29S G49E | 3.06 | 3 of 3 | 4 of 9

Extract of 6 entries:

changes | mean, log10 nM | seen in | empty controls
D25L A32H S55C | no signal | 0 of 3 | 0 of 9
K50F N51G D91W | 3.92 | 2 of 3 | 1 of 9
Y29W N33R S89Q | 2.70 | 3 of 3 | 2 of 9
Y29L S92R V97Y | 2.77 | 3 of 3 | 1 of 9
D25K R28E N52F | 2.56 | 3 of 3 | 1 of 9
K50P P54L | 3.39 | 3 of 3 | 3 of 9